Most compounds without a hit are left out; they make up all but 4.2% or so of the library.
MC4R ag barr = activates human MC4R beta-arrestin recruitment; P32245; U2OS MC4R beta-arrestin complementation, luminescence; percent of melanotan II response, DMSO zero; activation, % at 8.9 µM; actives 0.98% (n = 360,000);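 active means activation above a per-plate cutoff, the mean activation of sample wells on that plate plus 3 SD, cut at about 8% in these data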
NALP1 yeast inh = blocks the NALP1 inflammasome reconstituted in yeast. S. cerevisiae NALP1/ASC/caspase-1 growth, X-gal OD620, 72 h. inhibition, % at 10 µM. actives 0.61% (n = 280,000). AID 2071; in the data active means inhibition mostly above about 24%, no sharp cut-off; inactive means mostly below about 32%
ALR H2O2 inh = blocks human ALR sulfhydryl oxidase activity | inhibition, % (no concentration beside the values) | 3.8% of 290,000 active | purified ALR, DTT oxidation, H2O2 HRP-luminol luminescence | AID 485317 | P55789;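 active = mean and each replicate at 75% or more; inconclusive = only one of the two met; inactive = neither met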;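 also: stock transfer was 7.5 nL into about 7.5 µL; 0% = neutral wells and 100% = wells with inactivated enzyme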
Yeast UUG start = alters start codon recognition fidelity in yeast; S. cerevisiae UUG-firefly luciferase reporter, luminescence/redox ratio; activity score, % at 18.7 µM; hit rate 0.13% among 350,000;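 active = replicate mean at a twofold rise or more, about +100% in these data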;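 also: firefly luciferase made from a UUG start codon reports start codon fidelity; reporter light over untreated wells divided by growth signal over untreated wells; some hits fall short of that in this replicate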
HDAC3 inh = inhibitors of human histone deacetylase 3; actives 0.15% (n = 320,000); inhibition, % at 8.3 µM; O15379; recombinant HDAC3, fluorogenic peptide/trypsin coupled, fluorescence; in the data active means inhibition above about 26%, passing the limit was not always enough
MC4R antag cAMP = blocks human MC4R cAMP signaling. inhibition, % at 6.5 µM. MC4R-expressing cells, MTII-stimulated cAMP, LANCE TR-FRET. P32245. actives 0.48% (n = 360,000);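 active means inhibition above its plate's cutoff, the mean of tested wells on that plate plus 3 SD, cut at about 29% in these data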;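 further: 0% = Melanotan II alone and 100% = Melanotan II plus saturating MCL0020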
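System – human MC4R-expressing U2OS cells · Also added – Melanotan II · Dosing – one concentration, 6.5 µM nominal · Timing – 30-min compound, 1-h challenge, 1-h detection, room temperature · Measured by – Eu-cAMP/anti-cAMP TR-FRET, emission 671 nm · Replicates – singlicate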
* marks the source's active call; other numbers are inactive results; · = not tested or not shown.

Start of the data: the first six records (preview)
nr	structure	MC4R ag barr	NALP1 yeast inh	ALR H2O2 inh	Yeast UUG start	HDAC3 inh	MC4R antag cAMP
1	Cn1c(CCNC(=O)OC(C)(C)C)n[nH]c1=S	-2	-2	95*	-13	-3	-3
2	CO[C@@H]1CN(C)C(=O)c2ccc(NC(=O)Cc3ccccc3)cc2OC[C@H](C)N(CC2CC2)C[C@@H]1C	·	·	·	7	·	·
3	Nc1ccc(S(=O)(=O)NC2=NCCCCC2)cc1	-2	11	-12	-5	-4	7
4	Nc1nc2cc(S(=O)(=O)NC3=NCCCCC3)ccc2s1	-2	·	91*	·	2	5
5	CCOC(=O)c1ccc(S(=O)(=O)Nc2nc3cc(S(=O)(=O)NC4=NCCCCC4)ccc3s2)cc1	-2	-2	97*	·	4	5
6	O=C(COC(=O)c1ccc(O)cc1)Nc1cccc(S(=O)(=O)NC2=NCCCCC2)c1	-1	16	-6	4	·	1

The whole of this part, from the start:
nr	structure	MC4R ag barr	NALP1 yeast inh	ALR H2O2 inh	Yeast UUG start	HDAC3 inh	MC4R antag cAMP
1	Cn1c(CCNC(=O)OC(C)(C)C)n[nH]c1=S	-2	-2	95*	-13	-3	-3
2	CO[C@@H]1CN(C)C(=O)c2ccc(NC(=O)Cc3ccccc3)cc2OC[C@H](C)N(CC2CC2)C[C@@H]1C	·	·	·	7	·	·
3	Nc1ccc(S(=O)(=O)NC2=NCCCCC2)cc1	-2	11	-12	-5	-4	7
4	Nc1nc2cc(S(=O)(=O)NC3=NCCCCC3)ccc2s1	-2	·	91*	·	2	5
5	CCOC(=O)c1ccc(S(=O)(=O)Nc2nc3cc(S(=O)(=O)NC4=NCCCCC4)ccc3s2)cc1	-2	-2	97*	·	4	5
6	O=C(COC(=O)c1ccc(O)cc1)Nc1cccc(S(=O)(=O)NC2=NCCCCC2)c1	-1	16	-6	4	·	1
7	Cc1ccc(S(=O)(=O)Nc2ccc3c(c2)C(=O)N([C@@H](C)CO)C[C@H](C)[C@@H](CN(C)Cc2ccc(C(F)(F)F)cc2)OCCCC[C@@H](C)O3)cc1	·	·	·	6	·	·
8	N#Cc1ccc(COC(=O)CSc2nnc(N)s2)cc1	-1	33	97*	·	3	20
9	Cc1ccc2c(c1)NC(=O)c1cccnc1N2	-2	6	98*	-6	-6	8
10	CN(CC(=O)NCc1ccccc1)S(=O)(=O)c1cnc[nH]1	3	45*	-21	-12	0	-5
11	COc1ccc(N2CCN(S(=O)(=O)CCNC(=O)c3cccs3)CC2)cc1	-4	·	-9	·	-3	3
12	COc1ccc(CC(=O)NCC2(c3ccc(OC)c(OC)c3)CCCC2)cc1	1	-11	0	3	-1	6
13	CC(=O)c1ccc(N2CCN(C(=O)Cc3cccs3)CC2)cc1	0	3	-1	-1	4	5
14	COc1ccc(N2CCN(C(=O)CNC(=O)c3cccs3)CC2)cc1	-2	7	95*	-5	3	2
15	COc1ccc(N2CCN(C(=O)Cc3cccs3)CC2)cc1	-3	-1	97*	-8	-4	3

Remaining list, next part:
nr	structure	MC4R ag barr	NALP1 yeast inh	ALR H2O2 inh	Yeast UUG start	HDAC3 inh	MC4R antag cAMP
16	COc1ccc(N2CCN(C(=O)Cc3ccc(OC)c(OC)c3)CC2)cc1	0	12	88*	19	-11	13
17	COc1ccc(CC(=O)N2CCN(C(=O)Cc3ccc(OC)c(OC)c3)CC2)cc1OC	0	·	·	-6	·	5
18	COc1ccc(C2(CNC(=O)Cc3ccc(OC)c(OC)c3)CCOCC2)cc1	0	25*	·	7	8	0
19	CCNC(=O)C[C@@H]1CC[C@H]2[C@@H](COc3ccc(NC(=O)C4CCCCC4)cc3C(=O)N2C)O1	·	·	·	-13	·	·
20	COc1ccc(NC(=O)N(C)C[C@@H]2OCCCC[C@@H](C)Oc3ccc(NC(=O)CCC(F)(F)F)cc3C(=O)N([C@@H](C)CO)C[C@H]2C)cc1	·	·	·	34	·	·
21	O=C(CN1CCOCC1)NCC[C@H]1CC[C@H](NC(=O)Nc2ccc(F)cc2)[C@@H](CO)O1	·	·	·	6	·	·
22	O=C(c1cccs1)N1CCN(c2ccc(Cl)cc2)CC1	-2	-4	96*	2	-4	6
23	O=C(CCC(=O)N1CCN(c2ccc(O)cc2)CC1)c1cccs1	0	-4	99*	·	3	1
24	O=C(NCC(=O)N1CCN(c2ccccc2)CC1)c1cccs1	-3	-2	96*	-12	2	13
25	CN1CCN(C(=O)CNC(=O)c2cccs2)CC1	-1	·	-29	·	-5	5
26	C[C@@H]1CN([C@@H](C)CO)S(=O)(=O)c2ccc(-c3cccnc3)cc2O[C@H]1CN(C)C(=O)C1CCCCC1	·	·	·	-10	·	·
27	C/C=C/c1cnc2c(c1)C(=O)N([C@H](C)CO)C[C@H](C)[C@H](CN(C)C(=O)NCCC)O2	·	·	·	-7	·	·
28	C=CCn1c(C)cc(C(=O)COC(=O)c2ccc(N)c([N+](=O)[O-])c2)c1C	3	17	5	·	3	10
29	C=CCn1c(C)cc(C(=O)COC(=O)c2ccc3c(c2)NC(=O)CS3)c1C	-1	-4	98*	-19	1	11
30	COCCn1c(C)cc(C(=O)COC(=O)c2ccc3c(c2)NC(=O)CS3)c1C	-1	24	98*	·	3	13

Next part:
nr	structure	MC4R ag barr	NALP1 yeast inh	ALR H2O2 inh	Yeast UUG start	HDAC3 inh	MC4R antag cAMP
31	COCCn1c(C)cc(C(=O)COC(=O)c2ccc3ncsc3c2)c1C	-2	22	-5	-4	9	1
32	CN(C)c1ccc(C(=S)N2CCN(c3ccccc3)CC2)cc1	-1	-13	99*	-24	-1	-3
33	CN(C)c1ccc(C(=S)N2CCOCC2)cc1	-1	-19	99*	-20	10	0
34	S=C(c1ccc(N2CCOCC2)cc1)N1CCCCC1	-1	6	87*	-16	4	3
35	CC(=O)N1CCN(C(=S)c2ccc(N(C)C)cc2)CC1	0	-13	98*	-13	9	10
36	CN1CCN(C(=O)C[C@@H]2C[C@@H]3c4cc(NC(=O)NC5CCCCC5)ccc4O[C@@H]3[C@@H](CO)O2)CC1	·	·	·	-5	·	·
37	C/C=C/c1ccc2c(c1)O[C@H](CN(C)C(=O)CN1CCOCC1)[C@H](C)CN([C@H](C)CO)S2(=O)=O	·	·	·	13	·	·
38	Oc1ccc(C(=S)N2CCCCC2)cc1	0	22	10	-16	7	13
39	CC1CCN(C(=S)c2ccc(N(C)C)cc2)CC1	-4	18	99*	-20	0	2
40	Cc1ccc(N2CCN(C(=S)c3ccc(N(C)C)cc3)CC2)cc1	1	13	18	-5	4	0
41	CN(C)c1ccc(C(=S)N2CCCCCC2)cc1	-1	12	98*	-23	0	5
42	CN(C)c1ccc(C(=O)N2CCCC2)cc1	0	-6	98*	·	-5	-2
43	Cc1[nH]c(C)c(S(=O)(=O)NCc2ccc(N(C)C)cc2)c1C(=O)N1CCCC1	0	10	98*	14	-5	9
44	COc1cccc(S(=O)(=O)Nc2ccc3c(c2)C(=O)N(C)C[C@H](OC)[C@H](C)CN[C@H](C)CO3)c1	·	·	·	-13	·	·
45	C[C@H](NC(=O)C[C@H]1CC[C@@H](NC(=O)C2CC2)[C@@H](CO)O1)c1ccccc1	·	·	·	-4	·	·

Next results:
nr	structure	MC4R ag barr	NALP1 yeast inh	ALR H2O2 inh	Yeast UUG start	HDAC3 inh	MC4R antag cAMP
46	Cc1noc(C)c1NC(=O)N(C)C[C@H]1Oc2ccc(NC(=O)C3CCCCC3)cc2CC(=O)N([C@H](C)CO)C[C@@H]1C	·	·	·	3	·	·
47	O=C(COC(=O)COc1ccc(Nc2ccccc2)cc1)NCc1ccco1	-2	8	100*	3	5	-1
48	O=C(COc1ccccc1)NCCSCc1ccco1	1	39	82*	-1	5	-2
49	COc1cc(OC)cc(C(=O)NCC(=O)OCC(=O)NCc2ccco2)c1	-1	·	1	·	33*	8
50	Cc1c(NC(=O)COC(=O)COc2ccc(Nc3ccccc3)cc2)c(=O)n(-c2ccccc2)n1C	0	16	99*	·	1	4
51	O=C(C1CC1)N1CC[C@H]2[C@H](CO)Nc3ccc(-c4cccc(F)c4)cc3[C@H]21	·	·	·	8	·	·
52	COc1ccccc1/C=C/C=N/Nc1cccc(C(=O)O)c1	-1	14	98*	-22	3	-3

Bioassay records from PubChem.
